Test results: paper PMC2653193, “A Unique Dual Activity Amino Acid Hydroxylase in Toxoplasma gondii” (PLoS ONE, 2009)

System: N[C@@H](Cc1ccc(O)cc1)C(=O)O
Experiment: purified protein
Conditions: 500 µM 6-MPH4, 500 µM NADH, 10 µM ferrous ammonium sulphate, 50 mM HEPES, pH 7.5, 32°C, 0-200 µM tyrosine

Δ239TgAaaH1 (Toxoplasma gondii)
Km: 3.22 ± 1.15 µM

Δ239TgAaaH2 (Toxoplasma gondii)
Km: 4.12 ± 0.10 µM
